## Apparent affinities of Ab-14 variants for a coronavirus HR2 peptide

Source: Li et al. 2023 (doi:10.1038/s41467-023-39022-2), MIT Lincoln Laboratory and A-Alpha Bio; data file from the FLAb repository.

Antigen: PDVDLGDISGINAS, a 14-residue peptide of the SARS-CoV-2 spike HR2 region.

Each scFv is VH, three GGGGS repeats, VL, as in the parent Ab-14, and differs from it in the CDRs of the heavy chain only.
VH: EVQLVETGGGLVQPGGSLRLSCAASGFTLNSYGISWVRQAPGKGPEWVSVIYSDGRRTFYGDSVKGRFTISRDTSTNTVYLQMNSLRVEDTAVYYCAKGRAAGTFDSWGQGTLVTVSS
VL: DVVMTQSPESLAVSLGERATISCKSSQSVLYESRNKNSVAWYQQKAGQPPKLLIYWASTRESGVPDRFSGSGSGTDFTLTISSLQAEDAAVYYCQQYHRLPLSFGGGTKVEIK

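The variants were designed computationally from a first round of random CDR variants and then made and measured. Group labels follow the data file (Ctrl: baseline library sampled from a position-specific scoring matrix, with some repeated check sequences; GPLM: also part of the Gaussian process libraries; HC: hill climbing; a sequence that several methods proposed may carry one label only). In AlphaSeq, yeast of one mating type display the scFv and yeast of the other type display the target. Pairs that bind mate more often; barcode pairs of the diploids are counted by sequencing. A regression on co-assayed BCL2-family reference pairs converts the normalised counts of each replicate to an apparent Kd. Each pool was mated in six replicate cultures.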

Each variant's VH is given in full. Numbers give log10(Kd / nM), so 0 is 1 nM and 3 is 1 µM. Smaller is tighter. "n.d." marks a missing value. The strain was present, yet no cells mated with the target were sequenced in that replicate, which points to weak or no binding. Some sequences occur more than once in the pool; their replicates are listed entry by entry, parted by semicolons. In the paper, a design with two or fewer of six values counts as a poor binder. The range of this assay differs from that of the first round, and the authors advise against merging the two. Three control strains display no target. For all heavy chain designs, 1% of the pairings with them gave a signal, with a median of 2.08 and one signal in twenty below 0.84, so weak values seen in few replicates may be background. The control count says in how many pairings with the empty strains this scFv gave a signal, with their mean in brackets.

| # | VH | group | log10 Kd (nM) by replicate | signal with controls |
|---|---|---|---|---|
| 1 | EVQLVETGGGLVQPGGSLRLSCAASGNTLNSYGISWVRQAPGKGPEWVSVIYSDGRRTFYGDSVKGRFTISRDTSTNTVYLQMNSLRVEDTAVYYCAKGRAAGTFDSWGQGTLVTVSS | Ctrl | n.d. 2.93 2.54 n.d. 2.59 n.d. | 0/18 |
| 2 | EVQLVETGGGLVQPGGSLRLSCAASGFTLDDYGISWVRQAPGKGPEWVSVIYSDGRRTFYGDSVKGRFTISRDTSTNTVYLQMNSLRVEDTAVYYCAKGRAAGTFDQWGQGTLVTVSS | Ctrl | 0.97 1.36 1.48 0.59 2.42 0.93 | 0/18 |
| 3 | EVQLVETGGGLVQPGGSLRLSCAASGFTLNSYGISWVRQAPGKGPEWVSVMYSDGRRTFYGQSVKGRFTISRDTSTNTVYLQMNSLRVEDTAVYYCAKSRAAGTADSWGQGTLVTVSS | Ctrl | n.d. n.d. n.d. n.d. n.d. n.d. | 0/18 |
| 4 | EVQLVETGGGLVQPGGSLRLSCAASGFTLNSYGSSWVRQAPGKGPEWVSVIYSDGRRTFYGDKVKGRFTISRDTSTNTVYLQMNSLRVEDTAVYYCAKGRAAGTFDSWGQGTLVTVSS | Ctrl | n.d. n.d. n.d. n.d. n.d. n.d. | 0/18 |
| 5 | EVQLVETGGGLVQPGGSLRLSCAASGFKLNSYGIHWVRQAPGKGPEWVSVIYADGQRTFYGDSVKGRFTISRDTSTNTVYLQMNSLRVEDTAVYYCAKGRVAGTFDTWGQGTLVTVSS | Ctrl | 0.04 -0.23 0.05 0.08 -0.24 0.38 | 0/18 |
| 6 | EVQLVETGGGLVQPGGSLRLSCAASGFTLQSYGISWVRQAPGKGPEWVSVIYSDGFRTFYYDSVKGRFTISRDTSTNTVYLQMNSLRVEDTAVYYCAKGRAAGTFDSWGQGTLVTVSS | Ctrl | n.d. n.d. n.d. n.d. n.d. n.d. | 0/18 |
| 7 | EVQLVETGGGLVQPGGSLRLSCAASGENLNSYGISWVRQAPGKGPEWVSVIYSDGRRTFYGDSVKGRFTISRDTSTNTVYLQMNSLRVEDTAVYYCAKRRAAGTFDSWGQGTLVTVSS | Ctrl | n.d. n.d. n.d. n.d. n.d. n.d. | 0/18 |
| 8 | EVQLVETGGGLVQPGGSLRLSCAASGNTLNSYGISWVRQAPGKGPEWVSVIYSDGRRTAYGDSVKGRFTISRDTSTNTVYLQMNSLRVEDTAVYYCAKGRVAGTFDSWGQGTLVTVSS | Ctrl | 0.01 0.53 0.05 -0.19 -0.08 0.28 | 0/18 |
| 9 | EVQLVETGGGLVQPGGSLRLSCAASGFTINSYGISWVRQAPGKGPEWVSVIYSDGRRTWYGDSVKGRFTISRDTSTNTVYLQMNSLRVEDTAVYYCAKDRAAGTKDSWGQGTLVTVSS | Ctrl | n.d. n.d. n.d. n.d. n.d. n.d. | 0/18 |
| 10 | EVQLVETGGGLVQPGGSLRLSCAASGFHLNSQGISWVRQAPGKGPEWVSVIYADGRRTFYTDSVKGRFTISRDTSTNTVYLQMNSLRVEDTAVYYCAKGRIAGTFDSWGQGTLVTVSS | Ctrl | -0.11 0.58 0.16 0.50 0.59 -0.01 | 0/18 |
| 11 | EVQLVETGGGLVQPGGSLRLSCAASGNVLNSYGISWVRQAPGKGPEWVSVIYSDGRRTFYGDSVKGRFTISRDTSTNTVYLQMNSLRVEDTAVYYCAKGRAAGTFDSWGQGTLVTVSS | Ctrl | n.d. 2.71 n.d. 1.48 n.d. 2.28 | 1/18 (1.65) |
| 12 | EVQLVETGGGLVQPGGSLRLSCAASGFTLNSYPISWVRQAPGKGPEWVSVIYSDGRRTGYADSVKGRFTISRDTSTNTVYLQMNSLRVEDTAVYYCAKARAAVTFDSWGQGTLVTVSS | Ctrl | n.d. n.d. n.d. n.d. n.d. n.d. | 0/18 |
| 13 | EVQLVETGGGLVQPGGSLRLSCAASGFTLNSYGISWVRQAPGKGPEWVSVIYSDGRRTFYSDNVKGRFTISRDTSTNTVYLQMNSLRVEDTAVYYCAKGRAAGTFDSWGQGTLVTVSS | Ctrl | 0.55 0.00 -0.07 0.51 0.00 -0.17 | 0/18 |
| 14 | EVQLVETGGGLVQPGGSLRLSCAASGFTLNSYGISWVRQAPGKGPEWVSVIYSDGKRTFYGDRVKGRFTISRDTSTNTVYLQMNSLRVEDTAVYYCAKGRMAGTFDPWGQGTLVTVSS | Ctrl | n.d. n.d. n.d. n.d. n.d. n.d. | 0/18 |
| 15 | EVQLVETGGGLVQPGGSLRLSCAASGVTLNSYGISWVRQAPGKGPEWVSVIYSDGRRTFYGDSVEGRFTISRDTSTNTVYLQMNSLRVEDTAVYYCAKGLAAGTFDSWGQGTLVTVSS | Ctrl | n.d. n.d. n.d. n.d. n.d. n.d. | 1/18 (1.34) |
| 16 | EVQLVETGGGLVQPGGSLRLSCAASGFTLNDYGISWVRQAPGKGPEWVSVIYSDGRRTFYGDSVKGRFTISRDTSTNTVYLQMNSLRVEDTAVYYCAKGRAAGTFDQWGQGTLVTVSS | Ctrl+GPLM_HC | -0.07 n.d. 0.60 n.d. n.d. n.d.; 1.39 1.08 0.98 1.58 1.11 1.24 | 0/36 |
| 17 | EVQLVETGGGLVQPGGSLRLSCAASGFTLNDYGISWVRQAPGKGPEWVSVIYSDGRRTFYGDSVKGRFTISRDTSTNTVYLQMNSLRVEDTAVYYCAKGRASGTFVSWGQGTLVTVSS | Ctrl | n.d. n.d. n.d. n.d. n.d. n.d. | 0/18 |
| 18 | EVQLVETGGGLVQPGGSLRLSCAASGFTLNSYGISWVRQAPGKGPEWVSVIYSDGRRTFYSDSVKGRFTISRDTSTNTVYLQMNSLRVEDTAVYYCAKGRWAGTFDSWGQGTLVTVSS | Ctrl+GPLM_HC | n.d. n.d. n.d. 0.11 0.33 n.d.; 1.65 0.82 1.38 1.52 2.37 1.34 | 0/36 |

Extract of 2 entries:

VH	group	log10 Kd (nM) by replicate	signal with controls
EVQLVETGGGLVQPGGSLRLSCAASGFTLNSYGISWVRQAPGKGPEWVSVIYSDGRRTFYSDNVKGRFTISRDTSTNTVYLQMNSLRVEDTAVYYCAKGRAAGTFDSWGQGTLVTVSS	Ctrl	0.55 0.00 -0.07 0.51 0.00 -0.17	0/18
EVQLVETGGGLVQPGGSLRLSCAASGFTLNSYGISWVRQAPGKGPEWVSVIYSDGKRTFYGDRVKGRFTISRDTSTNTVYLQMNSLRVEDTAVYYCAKGRMAGTFDPWGQGTLVTVSS	Ctrl	n.d. n.d. n.d. n.d. n.d. n.d.	0/18